## OPERA 2.9 data: water solubility values

From the experimental data distributed with OPERA 2.9.

Solubility in water is on a log10 molar scale (set defined at 25 °C).
Cells with "–" have no entry in this list.

| structure (SMILES) | name | log solubility (log10 mol/L) |
|---|---|---|
| CC(Br)C(C)(Br)C(=O)O (stereo not given) | 2,3-Dibromo-2-methylbutanoic acid | -1.394 |
| CC(Cl)(Cl)C(=O)[O-].[Na+] | Dalapon-sodium | 0.581 |
| NC(N)=Nc1ccc2[nH]c3c(c2c1)CC1(O)C2Cc4ccc(O)c5c4C1(CCN2CC1CC1)C3O5.O=C(O)C(F)(F)F.O=C(O)C(F)(F)F (stereo not given) | 5'-Guanidinonaltrindole di(trifluoroacetate) | -1.368 |
| CC(C)(C)NCC(O)c1cc(Cl)c(N)c(Cl)c1 (stereo not given) | Clenbuterol | -3.39 |
| CCOP(=S)(OCC)SCS(=O)(=O)C(C)(C)C | Terbufos sulfone | -2.9 |
| FC(F)C(F)(F)OCC(Cn1cncn1)c1ccc(Cl)cc1Cl (stereo not given) | – | -3.38 |
| C[C@H]1O[C@@H](O[C@H]2[C@@H](O)C[C@H](O[C@H]3[C@@H](O)C[C@H](O[C@H]4CC[C@@]5(C)[C@H](CC[C@@H]6[C@@H]5C[C@@H](O)[C@]5(C)[C@@H](C7=CC(=O)OC7)[C@@H](O)C[C@]65O)C4)O[C@@H]3C)O[C@@H]2C)C[C@H](O)[C@@H]1O | Diginatin | -2.901 |
| O=c1oc2ccccc2c(O)c1C1CC(c2ccc(-c3ccccc3)cc2)Cc2ccccc21 (stereo not given) | Difenacoum | -5.42 |
| NC(=O)OCc1ccccc1 | Benzyl carbamate | -0.35 |
| CCCC1(CC(C)C)C(=O)NC(=O)NC1=O | 5-Isobutyl-5-propyl-2,4,6(1H,3H,5H)-pyrimidinetrione | -2.258 |
| CCc1ccccc1N | 2-Ethylaniline | -1.619 |
| O=[N+]([O-])Nc1ccc(Cl)cc1Cl | 2,4-Dichloro-N-nitro-aniline | -3 |
| COc1cc2c(c(OC)c1OC)-c1ccc(O)c(=O)cc1[C@@H](N)CC2 | – | -1.39 |
| O=P1(NCCCl)OCCCN1CCCl (stereo not given) | Ifosfamide | -1.241 |
| CCOP(=S)(OCC)SCCl | Chlormephos | -3.59 |
| CC(C)(c1ccccc1)c1cc(-n2nc3ccccc3n2)c(O)c(C(C)(C)c2ccccc2)c1 | – | -7.5 |
| CCCC(C)C1(CC)C(=O)N=C(S)NC1=O (stereo not given) | Thiopental | -3.36 |
| CC1(C)C(C=C(Cl)c2ccc(Cl)cc2)C1C(=O)OC(C#N)c1ccc(F)c(Oc2ccccc2)c1 (stereo not given) | Flumethrin | -3.41 |
| CCS(=O)CCSP(=S)(OC)OC (stereo not given) | S-[2-(Ethanesulfinyl)ethyl] O,O-dimethyl phosphorodithioate | -0.914 |
| O=C1NC(=S)NC(=O)C1C(=O)Nc1ccccc1 | Merbarone | -1.642 |
| CC(C)CCC1(C)C(=O)NC(=O)NC1=O | Barbituric acid, 5-isopentyl-5-methyl- | -2.424 |
| N#Cc1ccc(Cl)cc1 | 4-Chlorobenzonitrile | -2.749 |
| CCCC1(CCC(C)C)C(=O)NC(=O)NC1=O | Barbituric acid, 5-isopentyl-5-propyl- | -2.595 |
| CCCC(=O)OC(C(Cl)(Cl)Cl)P(=O)(OC)OC (stereo not given) | Butonate | -3.05 |
| O=C(O)C(Cl)(Cl)Cl | Trichloroacetic acid | -0.57 |
| C=CCN1CC[C@]23c4c5ccc(O)c4O[C@H]2C(=O)CC[C@@]3(O)[C@H]1C5 | Naloxone | -1.764 |
| O=C([O-])C(F)(F)C(F)(F)C(F)(F)C(F)(F)C(F)(F)C(F)(F)C(F)(F)F.[Na+] | Sodium perfluorooctanoate | -0.747 |
| Nc1cc(Cl)c(Cl)cc1Cl | 2,4,5-Trichloroaniline | -3.436 |
| C[C@]1(O)CC[C@H]2[C@@H]3CCC4=CC(=O)CC[C@]4(C)[C@@]3(F)[C@@H](O)C[C@@]21C | Fluoxymestrone | -3.872 |
| O=S(=O)(c1ccccc1)c1ccccc1 | Diphenylsulfone | -4.193 |
| CCNNCC | 1,2-Diethylhydrazine | -0.224 |
| C[C@]12CC[C@H](O)C[C@@H]1CC[C@@H]1[C@@H]2CC[C@]2(C)[C@@H](O)CC[C@@H]12 | 3beta,17beta-Androstanediol | -1.989 |
| OC[C@@H](O)[C@H]1O[C@@H]2O[C@H](C(Cl)(Cl)Cl)O[C@@H]2[C@H]1O | Chloralose | -1.84 |
| c1ccc2nc3ccc4ccccc4c3cc2c1 | Benz[a]acridine | -5.81 |
| CCOCn1c(-c2ccc(Cl)cc2)c(C#N)c(Br)c1C(F)(F)F | Chlorfenapyr | -6.561 |
| O=C1OC(=O)c2c(Br)c(Br)c(Br)c(Br)c21 | 4,5,6,7-Tetrabromo-1,3-Isobenzofurandione | -3.436 |
| Clc1nc(Cl)nc(Cl)n1 | 2,4,6-Trichloro-s-triazine | -2.737 |
| Cc1ccc(Cl)cc1C | 4-Chloro-o-xylene | -3.718 |
| C=CC[C@]1(O)CC[C@H]2[C@@H]3CCC4=CCCC[C@@H]4[C@H]3CC[C@@]21C | Allylestrenol | -5.731 |
| N#Cc1sc2c(=O)c3ccccc3c(=O)c=2sc1C#N | Dithianon | -6.13 |
| O=C(O)CC(Br)C(=O)O (stereo not given) | 2-Bromobutanedioic acid | -0.215 |
| c1cnc2c(c1)ccc1ncccc12 | – | -2.68 |
| Cc1c([N+](=O)[O-])cc(N)cc1[N+](=O)[O-] | 4-Amino-2,6-dinitrotoluene | -2.2 |
| CC(=O)Oc1ccc(C#N)cc1 | Benzonitrile, 4-(acetyloxy)- | -1.799 |
| N#C[C@H]1CCC[C@@H]2OC[C@H](c3ccccc3)N21 | (+)-2-Cyano-6-phenyloxazolopiperidine | -3.194 |
| CCC(=O)Nc1ccccc1 | N-Phenylpropanamide | -1.92 |
| COC(=O)C(c1ccccc1)C1CCCCN1 (stereo not given) | Methylphenidate | -2.689 |
| CCCCC(CC)C(=O)OOC(C)(C)CCC(C)(C)OOC(=O)C(CC)CCCC (stereo not given) | 2,5-Dimethyl-2,5-bis(2-ethylhexanoylperoxy)hexane | -7.188 |
| C[C@@H]1O[C@@H](O[C@H]2CC[C@]3(C=O)[C@H]4CC[C@]5(C)[C@@H](C6=CC(=O)OC6)CC[C@]5(O)[C@@H]4CC[C@]3(O)C2)[C@H](O)[C@H](O)[C@H]1O | – | -3.04 |
| CCCCCCCCCc1ccc(OP(=O)(Oc2ccccc2)Oc2ccccc2)cc1 | 4-Nonylphenyl diphenyl phosphate | -5.77 |

Extract of 6 entries:

| structure (SMILES) | name | log solubility (log10 mol/L) |
|---|---|---|
| COc1cc2c(c(OC)c1OC)-c1ccc(O)c(=O)cc1[C@@H](N)CC2 | – | -1.39 |
| Nc1cc(Cl)c(Cl)cc1Cl | 2,4,5-Trichloroaniline | -3.436 |
| CCNNCC | 1,2-Diethylhydrazine | -0.224 |
| CCOCn1c(-c2ccc(Cl)cc2)c(C#N)c(Br)c1C(F)(F)F | Chlorfenapyr | -6.561 |
| COC(=O)C(c1ccccc1)C1CCCCN1 (stereo not given) | Methylphenidate | -2.689 |
| CCOP(=S)(OCC)SCS(=O)(=O)C(C)(C)C | Terbufos sulfone | -2.9 |

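These are experimental values that the OPERA curators gathered from public databases to train and test their QSAR models. One number stands for a compound and property, with no spread given. How each value was measured is not recorded, so precision varies. A value may pool stereoisomers or salt forms, and the file does not say which form was measured. Unmarked limits or estimates from the upstream databases cannot be ruled out.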